# Reference: patent US20260356830A1, “COMPOUNDS FOR MODULATING RET PROTEIN” (Bristol-Myers Squibb Company, priority 2022, published 2026)
# Amino acid sequences for entries named in this document (tags omitted).
# UniProt P07949, whole entry, looked up: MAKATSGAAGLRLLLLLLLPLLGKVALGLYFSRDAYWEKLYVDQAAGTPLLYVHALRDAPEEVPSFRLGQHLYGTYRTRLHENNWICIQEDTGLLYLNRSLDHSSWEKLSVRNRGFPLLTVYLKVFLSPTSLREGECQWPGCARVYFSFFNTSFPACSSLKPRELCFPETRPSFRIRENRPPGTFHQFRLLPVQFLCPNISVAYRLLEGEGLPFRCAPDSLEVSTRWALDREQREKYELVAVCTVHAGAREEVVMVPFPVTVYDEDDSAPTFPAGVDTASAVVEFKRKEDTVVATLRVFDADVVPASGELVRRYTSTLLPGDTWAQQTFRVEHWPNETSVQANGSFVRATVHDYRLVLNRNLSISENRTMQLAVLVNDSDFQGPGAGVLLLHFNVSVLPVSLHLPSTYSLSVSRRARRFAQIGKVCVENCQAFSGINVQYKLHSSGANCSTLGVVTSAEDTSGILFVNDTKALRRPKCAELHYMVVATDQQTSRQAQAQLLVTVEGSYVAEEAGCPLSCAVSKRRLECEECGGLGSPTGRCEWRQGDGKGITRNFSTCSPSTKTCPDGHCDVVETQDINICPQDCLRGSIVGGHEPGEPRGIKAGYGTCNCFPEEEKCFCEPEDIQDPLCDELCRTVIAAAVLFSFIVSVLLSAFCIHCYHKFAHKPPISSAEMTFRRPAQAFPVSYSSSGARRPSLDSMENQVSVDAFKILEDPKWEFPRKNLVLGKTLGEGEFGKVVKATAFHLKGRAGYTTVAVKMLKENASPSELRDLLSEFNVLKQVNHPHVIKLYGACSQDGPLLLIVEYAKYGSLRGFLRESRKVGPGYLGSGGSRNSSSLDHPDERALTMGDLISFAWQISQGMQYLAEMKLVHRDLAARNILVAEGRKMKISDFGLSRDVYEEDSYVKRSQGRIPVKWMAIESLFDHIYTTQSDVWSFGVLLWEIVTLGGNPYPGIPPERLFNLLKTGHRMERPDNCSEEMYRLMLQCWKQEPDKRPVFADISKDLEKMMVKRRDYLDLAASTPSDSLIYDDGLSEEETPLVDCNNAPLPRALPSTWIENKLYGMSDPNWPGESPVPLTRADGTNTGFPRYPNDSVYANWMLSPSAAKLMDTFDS
# UniProt Q16204, whole entry, looked up: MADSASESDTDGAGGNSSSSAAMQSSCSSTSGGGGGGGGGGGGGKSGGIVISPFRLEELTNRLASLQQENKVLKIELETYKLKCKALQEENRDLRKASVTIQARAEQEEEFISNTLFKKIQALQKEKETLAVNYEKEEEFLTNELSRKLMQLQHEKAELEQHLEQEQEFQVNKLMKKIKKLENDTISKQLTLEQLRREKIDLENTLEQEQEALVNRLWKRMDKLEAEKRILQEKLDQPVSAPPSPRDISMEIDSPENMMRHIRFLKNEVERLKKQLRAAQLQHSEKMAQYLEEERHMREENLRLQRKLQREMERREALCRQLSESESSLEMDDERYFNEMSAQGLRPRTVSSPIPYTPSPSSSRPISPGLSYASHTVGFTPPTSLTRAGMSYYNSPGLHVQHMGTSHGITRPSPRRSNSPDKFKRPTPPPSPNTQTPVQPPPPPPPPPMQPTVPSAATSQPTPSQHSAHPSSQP
# UniProt Q96SW2, whole entry, looked up: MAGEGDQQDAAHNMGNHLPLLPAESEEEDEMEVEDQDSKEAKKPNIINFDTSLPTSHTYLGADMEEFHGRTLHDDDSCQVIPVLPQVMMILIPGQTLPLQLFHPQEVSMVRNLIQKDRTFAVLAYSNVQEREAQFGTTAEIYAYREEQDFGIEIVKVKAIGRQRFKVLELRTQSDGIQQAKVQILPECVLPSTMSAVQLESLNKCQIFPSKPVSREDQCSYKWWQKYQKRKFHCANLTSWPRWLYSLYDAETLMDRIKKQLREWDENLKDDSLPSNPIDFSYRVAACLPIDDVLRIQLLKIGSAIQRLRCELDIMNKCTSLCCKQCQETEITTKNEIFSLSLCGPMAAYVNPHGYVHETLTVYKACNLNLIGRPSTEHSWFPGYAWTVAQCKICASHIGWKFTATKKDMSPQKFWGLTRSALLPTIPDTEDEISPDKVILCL
# Target: CCDC6-RET (Homo sapiens, UniProt P07949+Q16204+Q96SW2)
# Assay: Cellular RET degradation, AlphaLISA, TPC-1 cell line
# Assay type: cell-based
# Conditions: for Cell Density TPC-1/CCDC6-RET Ymax %: maximum degradation, 24 hrs; for DC50: read-out: Cell Density TPC-1/CCDC6-RET DC50, half-maximal degradation concentration, 24 hrs
Structure (SMILES),Cell Density TPC-1/CCDC6-RET Ymax %,DC50 [nM]
CCOc1cc(-c2ccc(N3CCC(CN(C(=O)CCCCCCN4CCC(c5ccc6c(c5)CN(C5CCC(=O)NC5=O)C6=O)CC4)C(C)C)(NC(=O)c4cc(F)ccc4F)CC3)nc2)c2c(C#N)cnn2c1 (stereo not drawn),* (60%<Y≤90%),2 to 10
CCOc1cc(-c2ccc(N3CCC(CN4CCC5(CCC(CC(=O)N6CCC(c7ccc8c(c7)C(=O)N(C7CCC(=O)NC7=O)C8)CC6)CC5)CC4)(NC(=O)c4cc(F)ccc4F)CC3)nc2)c2c(C#N)cnn2c1 (stereo not drawn),** (Y>90%),10 to 100
CCOc1cc(-c2ccc(N3CCC(CN4CCN(C(=O)CCCCCCN5CCN(c6ccc7c(c6)CN(C6CCC(=O)NC6=O)C7=O)CC5)CC4)(NC(=O)C4CC4)CC3)nc2)c2c(C#N)cnn2c1 (stereo not drawn),** (Y>90%),2 to 10
